In the assay the target is 5-HT2Cedited receptor (h) (Homo sapiens, UniProt P28335). The experiment in a line: Functional assay. It is filed as cell-based. The settings on record: read-out: Reference antagonist (IC50).

By UniProt entry, the sequences of proteins in these tests, tags left out. Residues count along the entry.
UniProt P28335, 33-458: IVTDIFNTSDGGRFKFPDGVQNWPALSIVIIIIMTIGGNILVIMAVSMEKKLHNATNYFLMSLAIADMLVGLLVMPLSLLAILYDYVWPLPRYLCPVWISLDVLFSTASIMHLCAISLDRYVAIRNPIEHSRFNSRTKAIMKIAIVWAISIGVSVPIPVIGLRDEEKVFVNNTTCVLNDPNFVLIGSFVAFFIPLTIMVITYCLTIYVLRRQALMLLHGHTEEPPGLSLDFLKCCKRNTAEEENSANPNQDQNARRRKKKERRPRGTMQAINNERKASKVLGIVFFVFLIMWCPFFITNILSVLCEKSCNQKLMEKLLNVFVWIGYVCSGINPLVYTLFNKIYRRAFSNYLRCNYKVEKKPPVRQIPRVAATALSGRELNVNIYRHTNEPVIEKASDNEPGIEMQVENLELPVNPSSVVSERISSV

Structures are written as SMILES.

For orientation: IC50 means the concentration that inhibits the measured activity by half. `Cn1ccc2cc3c(cc21)CCN3C(=O)Nc1cccnc1` [SB206553, 5-methyl-1-(3-pyridylcarbamoyl)-1,2,3,5-tetrahydropyrrolo[2,3-f]indole]: the IC50 was 0.027 µM.

The record behind these values is article PMC4639559 (2015).
